# Measurements from patent US11186548B2 (priority 2017, dated 2021).
# Experiment: Plasma pharmacokinetics of 14C-LLNL-02 after single intravenous dose (AMS)
# Conditions: male guinea pigs
# [1] = single intravenous 5 mg/kg, 5 mg/kg
# [2] = single intravenous 20 mg/kg, 20 mg/kg
smiles,measurement,setting,value
C[C@@H](CN1CCCc2ccccc2C1)NC(=O)/C=N/O [LLNL-02],AUC0-t,single intravenous 1 mg/kg,3880 ng·h/mL
same,AUC∞,single intravenous 1 mg/kg,7200 ng·h/mL
same,Cl (area),single intravenous 1 mg/kg,2.7962 mL/min/kg
same,T½ elim.,single intravenous 1 mg/kg,21.92 h
same,Vd (area),single intravenous 1 mg/kg,4.40228 L/kg
same,AUC∞,single intravenous 5 mg/kg,31500 ng·h/mL
same,AUC0-t,[1],20500 ng·h/mL
same,Cl (area),[1],2.977 mL/min/kg
same,T½ elim.,[1],17.3 h
same,AUC0-t,[2],51700 ng·h/mL
same,AUC∞,[2],87800 ng·h/mL
same,Cl (area),[2],5.185 mL/min/kg
same,T½ elim.,[2],18.9 h
same,Vd (area),[2],5.3419 L/kg
